Experiment [1] addresses 72 kDa type IV collagenase (Homo sapiens, UniProt P08253). Nature of the experiment: Inhibition of APMA activated recombinant human full length MMP2 expressed in mouse cells using MOCAc-Pro-Leu-Gly-Leu-A2pr(Dnp)-Ala-Arg-NH2 as substrate by fluorescence spectrophotometric method. Type of experiment: cell-based.
Experiment [2] has as its target T1, Matrilysin (Homo sapiens, UniProt P09237).
T1 sequence (P09237 whole entry): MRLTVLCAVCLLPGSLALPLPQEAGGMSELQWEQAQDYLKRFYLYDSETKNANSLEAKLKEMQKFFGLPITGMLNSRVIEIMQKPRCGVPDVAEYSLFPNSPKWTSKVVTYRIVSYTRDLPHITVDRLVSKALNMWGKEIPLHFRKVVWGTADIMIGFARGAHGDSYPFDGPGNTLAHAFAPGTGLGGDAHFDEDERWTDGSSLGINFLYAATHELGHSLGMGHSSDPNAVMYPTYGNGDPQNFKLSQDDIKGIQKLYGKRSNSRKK
Nature of the experiment: Inhibition of recombinant human MMP7 expressed in Escherichia coli using MOCAc-Pro-Leu-Gly-Leu-A2pr(Dnp)-Ala-Arg-NH2 as substrate by fluorescence spectrophotometric method.

Sequences of proteins named here, by UniProt entry; tags and fusion partners are left off. A change or cut given only in a name is not applied to a line headed by its entry.
UniProt P08253: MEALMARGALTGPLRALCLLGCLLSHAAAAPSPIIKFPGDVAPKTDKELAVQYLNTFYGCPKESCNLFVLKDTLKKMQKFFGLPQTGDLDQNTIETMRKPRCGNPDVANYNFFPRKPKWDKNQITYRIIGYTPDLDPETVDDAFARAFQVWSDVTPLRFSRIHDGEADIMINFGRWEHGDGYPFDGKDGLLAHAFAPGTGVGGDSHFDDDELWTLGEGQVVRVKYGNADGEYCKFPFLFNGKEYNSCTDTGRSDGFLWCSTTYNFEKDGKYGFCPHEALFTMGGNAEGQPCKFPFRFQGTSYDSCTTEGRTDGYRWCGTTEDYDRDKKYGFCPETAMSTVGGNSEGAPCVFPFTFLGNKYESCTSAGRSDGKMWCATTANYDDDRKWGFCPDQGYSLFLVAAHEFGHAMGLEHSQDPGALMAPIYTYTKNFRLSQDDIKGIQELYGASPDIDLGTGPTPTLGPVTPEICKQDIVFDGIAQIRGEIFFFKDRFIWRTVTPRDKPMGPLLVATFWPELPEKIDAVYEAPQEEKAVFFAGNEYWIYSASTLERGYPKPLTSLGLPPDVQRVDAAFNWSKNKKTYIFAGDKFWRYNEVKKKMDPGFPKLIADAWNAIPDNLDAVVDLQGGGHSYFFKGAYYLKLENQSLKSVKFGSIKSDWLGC

pKi: −log10 of the molar value.

With `CN1CC2(CC2)C[C@H](C(=O)NO)[C@H]1C(=O)N1CCN(c2ccc(C(F)(F)F)cn2)CC1`, the negative logarithm of the Ki (pKi) in experiment [1] was 8.86; in experiment [2], 7.12.

In general, pKi refers to the Ki on a negative log10 scale, so that one unit is a factor of ten.

Source of the values: ChEMBL document CHEMBL4145666, “In Search of Selectivity in Inhibition of ADAM10” (ACS Med Chem Lett, 2018).
